Data on three compounds can be found in ChEMBL document CHEMBL2321770.

Protein sequences, listed by entry. Tags and fused reporters are not part of them. Lines headed by an entry give the natural chain unless they say otherwise; changes in a name come on top.
UniProt P42338: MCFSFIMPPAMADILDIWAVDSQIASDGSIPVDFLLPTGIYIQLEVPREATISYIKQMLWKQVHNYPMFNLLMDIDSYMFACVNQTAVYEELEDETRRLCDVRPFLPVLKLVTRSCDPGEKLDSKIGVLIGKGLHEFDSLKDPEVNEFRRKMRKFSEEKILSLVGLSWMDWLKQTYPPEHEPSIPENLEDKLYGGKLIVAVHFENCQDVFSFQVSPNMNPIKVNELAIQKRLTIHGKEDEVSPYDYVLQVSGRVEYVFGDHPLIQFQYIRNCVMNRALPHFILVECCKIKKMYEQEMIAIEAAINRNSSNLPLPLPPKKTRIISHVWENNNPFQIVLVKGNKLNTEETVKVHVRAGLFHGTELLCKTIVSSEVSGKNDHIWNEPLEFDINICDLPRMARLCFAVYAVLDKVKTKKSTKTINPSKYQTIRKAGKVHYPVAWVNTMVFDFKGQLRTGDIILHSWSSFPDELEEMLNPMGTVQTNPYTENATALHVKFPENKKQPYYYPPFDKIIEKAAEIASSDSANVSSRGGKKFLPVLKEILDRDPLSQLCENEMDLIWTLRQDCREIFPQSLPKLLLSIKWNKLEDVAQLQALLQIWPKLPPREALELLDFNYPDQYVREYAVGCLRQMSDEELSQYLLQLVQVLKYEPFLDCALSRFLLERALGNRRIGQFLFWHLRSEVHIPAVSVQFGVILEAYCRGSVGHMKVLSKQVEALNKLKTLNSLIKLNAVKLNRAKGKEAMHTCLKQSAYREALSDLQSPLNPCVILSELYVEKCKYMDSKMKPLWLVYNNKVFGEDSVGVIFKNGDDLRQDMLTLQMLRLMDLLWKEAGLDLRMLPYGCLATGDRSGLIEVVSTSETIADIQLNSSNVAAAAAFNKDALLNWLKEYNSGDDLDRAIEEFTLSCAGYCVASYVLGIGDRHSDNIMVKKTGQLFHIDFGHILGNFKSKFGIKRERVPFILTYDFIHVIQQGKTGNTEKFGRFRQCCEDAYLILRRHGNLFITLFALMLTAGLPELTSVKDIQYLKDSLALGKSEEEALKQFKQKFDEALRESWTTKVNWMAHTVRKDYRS
UniProt P48736: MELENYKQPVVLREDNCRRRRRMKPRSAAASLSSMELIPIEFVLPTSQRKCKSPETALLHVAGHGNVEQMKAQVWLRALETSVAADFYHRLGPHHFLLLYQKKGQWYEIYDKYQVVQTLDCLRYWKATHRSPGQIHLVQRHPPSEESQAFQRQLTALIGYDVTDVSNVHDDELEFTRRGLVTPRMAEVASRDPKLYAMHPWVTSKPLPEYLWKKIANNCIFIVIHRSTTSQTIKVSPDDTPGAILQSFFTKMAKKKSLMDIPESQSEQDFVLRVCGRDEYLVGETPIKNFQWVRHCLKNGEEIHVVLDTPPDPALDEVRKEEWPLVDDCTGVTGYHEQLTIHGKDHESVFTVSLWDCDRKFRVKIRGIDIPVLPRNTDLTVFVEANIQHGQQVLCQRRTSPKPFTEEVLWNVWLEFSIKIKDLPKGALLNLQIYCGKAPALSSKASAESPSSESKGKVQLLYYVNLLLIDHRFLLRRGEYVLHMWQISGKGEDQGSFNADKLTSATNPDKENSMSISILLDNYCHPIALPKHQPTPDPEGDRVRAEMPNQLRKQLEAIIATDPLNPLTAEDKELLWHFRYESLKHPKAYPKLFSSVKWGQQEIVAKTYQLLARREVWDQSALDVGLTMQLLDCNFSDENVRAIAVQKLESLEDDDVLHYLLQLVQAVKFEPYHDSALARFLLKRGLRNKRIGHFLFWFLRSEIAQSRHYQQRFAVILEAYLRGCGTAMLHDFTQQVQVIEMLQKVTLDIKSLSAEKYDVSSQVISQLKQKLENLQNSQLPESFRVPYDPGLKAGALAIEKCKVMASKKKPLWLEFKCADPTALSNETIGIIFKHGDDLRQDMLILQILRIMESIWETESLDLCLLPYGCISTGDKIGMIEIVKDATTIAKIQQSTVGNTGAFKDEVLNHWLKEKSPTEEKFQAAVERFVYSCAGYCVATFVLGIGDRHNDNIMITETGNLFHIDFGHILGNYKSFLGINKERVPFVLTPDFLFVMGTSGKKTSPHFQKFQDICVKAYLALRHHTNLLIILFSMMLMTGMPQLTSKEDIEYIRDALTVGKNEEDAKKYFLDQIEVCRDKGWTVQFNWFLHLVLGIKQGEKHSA
UniProt P42336, whole entry: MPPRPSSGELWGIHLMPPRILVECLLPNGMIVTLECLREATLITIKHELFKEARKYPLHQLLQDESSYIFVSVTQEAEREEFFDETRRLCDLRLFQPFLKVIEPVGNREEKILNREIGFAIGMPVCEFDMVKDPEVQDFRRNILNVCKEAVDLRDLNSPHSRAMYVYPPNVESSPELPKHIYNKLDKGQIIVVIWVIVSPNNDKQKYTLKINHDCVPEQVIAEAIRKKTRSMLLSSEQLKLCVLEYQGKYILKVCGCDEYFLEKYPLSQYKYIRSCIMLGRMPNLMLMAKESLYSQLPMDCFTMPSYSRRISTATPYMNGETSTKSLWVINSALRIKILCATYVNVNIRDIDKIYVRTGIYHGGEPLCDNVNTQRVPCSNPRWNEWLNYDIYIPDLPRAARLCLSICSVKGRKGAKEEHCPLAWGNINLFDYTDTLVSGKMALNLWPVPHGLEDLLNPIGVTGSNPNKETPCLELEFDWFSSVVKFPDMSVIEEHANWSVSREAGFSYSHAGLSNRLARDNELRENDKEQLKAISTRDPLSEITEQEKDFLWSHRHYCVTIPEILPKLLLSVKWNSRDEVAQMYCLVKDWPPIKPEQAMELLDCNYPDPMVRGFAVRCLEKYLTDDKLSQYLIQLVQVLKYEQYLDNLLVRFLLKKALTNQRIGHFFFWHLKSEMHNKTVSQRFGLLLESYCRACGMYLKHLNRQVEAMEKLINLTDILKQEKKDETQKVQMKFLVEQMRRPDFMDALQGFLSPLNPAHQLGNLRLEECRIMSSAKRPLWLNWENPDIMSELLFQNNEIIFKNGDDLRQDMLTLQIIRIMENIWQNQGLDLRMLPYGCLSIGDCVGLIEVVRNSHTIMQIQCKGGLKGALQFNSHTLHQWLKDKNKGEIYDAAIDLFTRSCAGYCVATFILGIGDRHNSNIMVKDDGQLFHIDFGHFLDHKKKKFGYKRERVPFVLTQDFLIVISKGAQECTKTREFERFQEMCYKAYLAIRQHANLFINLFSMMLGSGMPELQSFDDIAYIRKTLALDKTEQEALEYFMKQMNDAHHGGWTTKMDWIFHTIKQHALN

Each structure is given as a SMILES string. The source made the active and inactive calls. The calls are words filed in the database; no cut-off is given here.

Test [1] has as its target Phosphatidylinositol 4,5-bisphosphate 3-kinase catalytic subunit beta isoform (Homo sapiens, UniProt P42338). Kind of test: Binding affinity to PI3Kbeta (unknown origin).
The target of test [2] is Phosphatidylinositol 4,5-bisphosphate 3-kinase catalytic subunit gamma isoform (Homo sapiens, UniProt P48736). Kind of test: Binding affinity to PI3Kgamma (unknown origin).
Test [3] addresses T1, Phosphatidylinositol 4,5-bisphosphate 3-kinase catalytic subunit delta isoform (Homo sapiens) (UniProt O00329).
T1 sequence (whole entry): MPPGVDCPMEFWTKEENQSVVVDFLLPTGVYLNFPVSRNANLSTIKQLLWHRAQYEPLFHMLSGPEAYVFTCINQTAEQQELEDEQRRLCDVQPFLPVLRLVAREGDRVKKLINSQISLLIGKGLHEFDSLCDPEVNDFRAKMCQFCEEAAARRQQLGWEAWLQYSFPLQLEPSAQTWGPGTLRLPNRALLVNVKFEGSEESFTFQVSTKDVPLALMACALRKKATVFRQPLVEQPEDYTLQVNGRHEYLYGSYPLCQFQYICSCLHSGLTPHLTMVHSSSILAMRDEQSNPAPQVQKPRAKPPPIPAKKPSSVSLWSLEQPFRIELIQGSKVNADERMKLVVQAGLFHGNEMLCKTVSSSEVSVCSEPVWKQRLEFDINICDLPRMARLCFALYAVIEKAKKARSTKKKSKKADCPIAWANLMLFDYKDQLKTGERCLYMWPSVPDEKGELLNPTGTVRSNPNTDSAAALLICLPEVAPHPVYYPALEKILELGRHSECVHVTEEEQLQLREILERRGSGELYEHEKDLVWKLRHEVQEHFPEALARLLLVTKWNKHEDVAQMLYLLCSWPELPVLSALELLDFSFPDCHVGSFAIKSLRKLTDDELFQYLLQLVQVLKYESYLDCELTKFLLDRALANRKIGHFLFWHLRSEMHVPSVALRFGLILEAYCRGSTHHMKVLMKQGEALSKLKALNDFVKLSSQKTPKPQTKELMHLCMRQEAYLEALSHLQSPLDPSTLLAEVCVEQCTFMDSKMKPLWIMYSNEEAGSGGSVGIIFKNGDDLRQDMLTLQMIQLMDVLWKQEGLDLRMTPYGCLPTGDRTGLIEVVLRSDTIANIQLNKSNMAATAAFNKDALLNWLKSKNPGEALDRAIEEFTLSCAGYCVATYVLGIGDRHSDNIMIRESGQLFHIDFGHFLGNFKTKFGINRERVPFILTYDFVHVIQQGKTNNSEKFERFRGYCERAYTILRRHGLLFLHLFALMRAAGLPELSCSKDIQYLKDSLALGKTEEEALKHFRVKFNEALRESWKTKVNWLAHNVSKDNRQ
The test can be described thus: Binding affinity to PI3Kdelta (unknown origin).

Test [4] concerns the target Phosphatidylinositol 4,5-bisphosphate 3-kinase catalytic subunit alpha isoform (Homo sapiens, UniProt P42336). Kind of test: Binding affinity to PI3Kalpha (unknown origin).
The species named for test [5] is Homo sapiens. Kind of test: Inhibition of PI3K (unknown origin).
Test [6] is filed under the species Homo sapiens. Kind of test: Inhibition of DNA-PK (unknown origin).

On to `O=c1cc(N2CCOCC2)oc2c(N3CCCCC3)csc12`, for which the result in test [1], in test [2], in test [3] and in test [4] was inactive.
In the case of `O=c1cc(N2CCOCC2)oc2c(-c3ccc(N4CCOCC4)cc3)csc12`, the outcome in test [1], in test [2], in test [3] and in test [4] was inactive.
Regarding `Cn1c(=O)n(-c2ccc(C(C)(C)C#N)cc2)c2c3cc(-c4cnc5ccccc5c4)ccc3ncc21`, the inhibition result in the test listed under Homo sapiens [5] and in the test listed under Homo sapiens [6] was “Active” in each case.
